Data published in patent US20140234420A1, “Method of Treating Skin Disorders using Nanoscale Delivery Devices and Transdermal Enhancing Compositions” (priority 2008, published 2014).

What was measured:
[1] = Encapsulation (entrapment) efficiency; assay type: physicochemical; conditions: compound encapsulated in zein core-shell particles
Procedure: Detection wavelength: 340 nm; Injection volume: 50 μl: Run time: 10 min. […] The resulting solution was centrifuged at 5000 rpm for 5 min. […] The resulting solution was centrifuged 5000 rpm for 5 min. […] Further the size was much more uniform in case of nanoemulsions as evidenced from the low polydispersity index (PDI). The zeta potential was high in case of nanoemulsions signifying the high physical stability of these nanocarriers. […] In vitro release of MTX from the formulations in phosphate buffer (pH 7.4) was studied using UV-spectrophotometry. […] Benzoyl peroxide content was measured using HPLC.

[2] = Size, polydispersity index and zeta potential determination (Malvern Zetasizer); assay type: physicochemical; conditions: compound encapsulated in zein core-shell particles
Procedure: Nanoparticles (2 mg) and micelles (2 mg) were dispersed in 2 ml of purified water and bath sonicated for 1 min. They were then centrifuged at 10000 rpm for 5 min and diluted 50 times with distilled water. About 50 μl of the nanoemulsion was taken and dilated to 1 mL using distilled water. A liposome dispersion was diluted 100 times using purified water and probe sonicated for 1 min using 20% amplitude. The sizes, polydispersity indexes, and zeta potentials, were measured with a Malvern Zetasizer.
Nanoparticles (2 mg) were dispersed in 1 ml of purified water and probe sonicated for 1 min using 20% amplitude. Subsequently, the sonicated particles were diluted 10 times with distilled water and properties were measured using a Malvern Zetasizer.
Size, polydispersity index and zeta potential determination: nanoparticles (50 μl), nanoemulsions (squalene) (50 μl) and nanomicelles (2 mg) were dispersed in 2 ml of purified water separately, vortex for 1 min. Further, the size, polydispersity index and zeta potential were measured with a Malvern Zetasizer.

Dextran FITC
Encapsulation Efficiency [1]: 79 ± 8% | Particle Size [2]: 89 ± 12 nm
